Assay results from patent US20110257035A1, “IDENTIFICATION OF SIGNATURE GENES ASSOCIATED WITH HEPATOCELLULAR CARCINOMA” (Bayer Healthcare LLC, priority 2008, published 2011).
“Also recorded” adds a separate entry of the source.

Tests used:
plasma s-VEGFR-2 = experiment: Plasma s-VEGFR-2 ELISA, baseline vs C3D1, HCC patients; format: in vivo, human; settings: sorafenib-treated HCC patients
Protocol: (§1) Plasma samples were obtained from patients at the time of screening, C3D1, and at the end of treatment visit. Samples from screening and C3D1 were assayed; samples from the end of treatment visit have not been assayed.
(§2) All six assays were sandwich immunoassays obtained from commercial sources. All assays were performed according to the manufacturers' protocols, as summarized below. All samples were assayed in duplicate and the average value was used for correlative analysis. Averaged biomarker values for each timepoint for each patient are given in Appendix 1.
ELISA kits for VEGF (cat #DVE00), s-VEGFR-2 (cat #DVR200), HGF (cat #DHG00), and c-KIT (cat #DSCR00) were obtained from R&D Systems.
A monoclonal capture antibody specific to the target protein was provided pre-coated in microplate wells. Appropriately diluted samples and standards were pipetted into the wells, allowing capture of the target protein by the immobilized antibodies. Unbound sample was washed away, and a horseradish peroxidase-conjugated antibody also specific for the target protein was added to the wells. Wells were washed again, and a substrate solution was added to each well. The colored reaction product was measured spectrophotometrically and was translated to the quantity (pg/mL or ng/mL) of biomarker protein in the sample by use of a simultaneously generated standard curve.

plasma s-VEGFR-3 = experiment: Plasma s-VEGFR-3 ELISA, baseline vs C3D1, HCC patients; format: in vivo, human; settings: sorafenib-treated HCC patients
Protocol: as §1, §2
ELISA kits for s-VEGFR-3 (cat #DY349) were obtained from R&D Systems.
A capture antibody specific to the target protein was provided in solution by the manufacturer and was coated into microplate wells before running the assay. Appropriately diluted samples and standards were pipetted into the wells, allowing capture of the target protein by the immobilized antibodies. Unbound sample was washed away, and a biotinylated antibody also specific for the target protein was added to the wells. After washing, a streptavidin-horseradish peroxidase conjugate was added. Wells were washed again, followed by addition of a substrate solution. The colored reaction product was measured spectrophotometrically and was translated to the quantity (pg/mL) of biomarker protein in the sample by use of a simultaneously generated standard curve.

CNC(=O)c1cc(Oc2ccc(NC(=O)Nc3ccc(Cl)c(C(F)(F)F)c3)cc2)ccn1 [Sorafenib]
Direction of change of plasma s-VEGFR-2 in response to sorafenib (plasma s-VEGFR-2): attenuated; also recorded: decrease
Direction of change of plasma s-VEGFR-3 in response to sorafenib (plasma s-VEGFR-3): attenuated; also recorded: decrease
